# Experimental data reported in US20260183411A1, “TARGETING SORTILIN” (priority 2024, published 2026).
# How the values were obtained:
# GAPDH mRNA [1] = test: GAPDH mRNA knockdown in HEK293 cells overexpressing SORT-1 (RT-qPCR); type: cell-based; details: HEK293 + SORT1 − CQ
# Description: (§1) These GAPDH siRNA-peptide conjugates were then evaluated in HEK293 cells and the neuronal cell line, neuro2A.
# GAPDH mRNA [2] = test: GAPDH mRNA knockdown in differentiated Neuro-2a cells (RT-qPCR); type: cell-based; details: Neuro2a − CQ
# Description: as §1
substance,measurement,setting,value
6-azidohexanoic Acid-(bAla)(Sar)(Sar)(Sar)(Sar)APRWDAPLRDPALRQ(B13)(G48) [Peptide 2-GAPDH6-BCN],GAPDH mRNA % knockdown compared to untreated cells,GAPDH mRNA [1],47%
same,GAPDH mRNA % knockdown compared to untreated cells,GAPDH mRNA [2],1%
